Target: Dual 3',5'-cyclic-AMP and -GMP phosphodiesterase 11A (Homo sapiens, UniProt Q9HCR9)
Settings: sf9

Sequences of proteins named here, by UniProt entry; tags and fusion partners are left off. A change or cut given only in a name is not applied to a line headed by its entry.
UniProt Q9HCR9: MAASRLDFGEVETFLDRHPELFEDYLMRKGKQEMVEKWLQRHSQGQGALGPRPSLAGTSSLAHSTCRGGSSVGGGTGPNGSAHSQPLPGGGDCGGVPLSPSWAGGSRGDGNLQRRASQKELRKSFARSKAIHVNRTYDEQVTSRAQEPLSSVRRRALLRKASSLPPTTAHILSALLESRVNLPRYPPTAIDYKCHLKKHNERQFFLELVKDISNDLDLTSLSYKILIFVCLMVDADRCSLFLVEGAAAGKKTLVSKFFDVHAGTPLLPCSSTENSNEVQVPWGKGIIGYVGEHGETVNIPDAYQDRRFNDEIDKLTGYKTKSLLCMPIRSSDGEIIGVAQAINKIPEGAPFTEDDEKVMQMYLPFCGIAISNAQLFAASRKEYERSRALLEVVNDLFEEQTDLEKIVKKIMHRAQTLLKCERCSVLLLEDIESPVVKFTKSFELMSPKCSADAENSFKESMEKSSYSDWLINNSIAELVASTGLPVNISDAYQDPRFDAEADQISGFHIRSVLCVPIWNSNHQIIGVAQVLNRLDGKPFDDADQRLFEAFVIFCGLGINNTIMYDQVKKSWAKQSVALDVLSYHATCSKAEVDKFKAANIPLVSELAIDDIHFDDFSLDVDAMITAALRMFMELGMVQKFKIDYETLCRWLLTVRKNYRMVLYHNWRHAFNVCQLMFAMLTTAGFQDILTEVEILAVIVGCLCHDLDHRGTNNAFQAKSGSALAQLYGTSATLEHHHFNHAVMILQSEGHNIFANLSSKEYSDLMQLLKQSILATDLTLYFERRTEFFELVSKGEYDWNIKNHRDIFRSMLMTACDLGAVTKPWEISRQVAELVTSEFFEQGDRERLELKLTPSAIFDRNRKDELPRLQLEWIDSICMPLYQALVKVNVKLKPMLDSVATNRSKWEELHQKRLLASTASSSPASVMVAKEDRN

SMILES: CCN(CC)C(=O)c1cc(-c2cccs2)nc2c1c(C)nn2-c1ccccc1
- IC50: 420 nM

Reference: ChEMBL document CHEMBL6127158, “Novel Aminopyrazole Inhibitors of PDE11A for the Treatment of Alzheimer's Disease and Other Types of Dementia” (ACS Med Chem Lett, 2024)
